Test results published in ChEMBL document CHEMBL1158436, “In vitro inhibition of human erythrocyte glutathione reductase by some new organic nitrates” (Bioorg Med Chem Lett, 2009).

Sequences of proteins named here, by UniProt entry; tags and fusion partners are left off. Residues count along the entry.
UniProt P00390, 44-522 limits assumed: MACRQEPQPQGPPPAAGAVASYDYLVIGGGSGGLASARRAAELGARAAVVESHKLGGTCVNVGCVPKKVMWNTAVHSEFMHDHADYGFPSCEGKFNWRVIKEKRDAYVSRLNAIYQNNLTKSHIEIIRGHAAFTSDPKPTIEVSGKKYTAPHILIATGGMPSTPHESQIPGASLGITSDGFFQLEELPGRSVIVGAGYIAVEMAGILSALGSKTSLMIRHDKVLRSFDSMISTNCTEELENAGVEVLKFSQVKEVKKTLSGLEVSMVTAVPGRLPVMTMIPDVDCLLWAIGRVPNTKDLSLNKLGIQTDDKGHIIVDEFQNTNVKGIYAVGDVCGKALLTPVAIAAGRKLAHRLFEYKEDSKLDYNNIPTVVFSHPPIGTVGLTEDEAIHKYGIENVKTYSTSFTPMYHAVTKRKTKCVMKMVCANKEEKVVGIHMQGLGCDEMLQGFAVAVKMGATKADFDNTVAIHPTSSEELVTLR

What follows are molecules tested against Glutathione reductase, mitochondrial (Homo sapiens, UniProt P00390) (assay: Inhibition of human erythrocyte glutathione reductase).

Structure (SMILES)	IC50 [µM]	Ki [µM]
O=[N+]([O-])OC1CC(O[N+](=O)[O-])C(O)CC1O (stereo unspecified)	8.1	17.9
O=[N+]([O-])OC1CCC(O[N+](=O)[O-])C(O)C1O (stereo unspecified)	7.17	17.4
O=[N+]([O-])OC1CC(O)C(O[N+](=O)[O-])CC1O (stereo unspecified)	8.71	18.4
